Source: patent US12061202B2, “Compositions and methods for bioluminescent detection using multifunctional probes” (Promega Corporation, priority 2019, dated 2024)

Test system: SKBR3 cells
Assay: Antibody dependent cellular cytotoxicity (ADCC), labeled SKBR3 cells co-cultured with PBMC
Format: cell-based
Settings: SKBR3 labeled with 10 μM Labeling Probe; PBMC E:T 20:1; 5 hours at 37° C.
Procedure: As shown in FIGS. 3A-3C, experiments were conducted to test antibody dependent cellular cytotoxicity (ADCC) in Daudi (FIGS. 3A-3B) and SKBR3 (FIG. 3C) cells labeled with the bifunctional probes of the present disclosure. Daudi and SKBR3 cells were labeled with 1 μM and 10 μM Labeling Probe respectively and co-cultured with peripheral blood mononuclear cells (PBMC; Cellular Technologies Limited) at an E:T ratio of 20:1 (100,000 effector to 5,000 target) with indicated antibody titrations for 5 hours at 37° C. prior to Nano-Glo® Luciferase Assay Substrate addition. […] Curves in FIGS. 3B and 3C were generated following assay background subtraction (RLU [Target cells+Effector cells+Detection Components]−RLU [Media+Detection Components]) using a four parametric variable slope algorithm in Prism.

“Herceptin: antibody titrated in ADCC assay on SKBR3 cells” was tested. Which EC50 did it give?
Its EC50 is 0.11 µg/mL.
